Assay results taken from patent publication US20240409582A1, “DESIGN AND CHARACTERIZATION OF INHIBITORY PEPTIDES (IPEPS) DERIVED FROM OF MIEN 1 PROTEIN SEQUENCE” (priority 2022, published 2024).

Tests used:
[1] = Mouse liver microsome stability; format: in vitro ADME; conditions: 2 μM, 0.5 mg/mL microsome protein, NADPH
Protocol: (§1) Analytical LC-MS/MS conditions.
Mouse liver microsome stability. Male ICR/CD-1 mouse microsome fractions (lot 2110330) were purchased from Xenotech (Kansas City, KS). Microsome protein (0.5 mg/mL) was placed in a glass screw cap tube; a 2 mM DMSO stock of (D/L)-LA3IK and (D/L)-RP-7 were spiked into separate 50 mM Tris, pH 7.5 solution and this was added to the microsome solution on ice. The final concentration of compounds after addition of all reagents was 2 μM. An NADPH-regenerating system (1.7 mg/ml NADP, 7.8 mg/ml glucose-6-phosphate, 6 U/ml glucose-6-phosphate dehydrogenase in 2% w/v NaHCO3/10 mM MgCl2) was added for analysis of Phase I metabolism after heating both the regenerating solution and the sample tubes to 37° C. for 5 min in a 37° C. shaking water bath. The incubation was continued and at varying time points after addition of phase I cofactors, the reaction was stopped by the addition of 0.5 ml of acetonitrile containing IS and formic acid such that the final concentration of IS was 100 ng/ml and acid was 0.1%. Time 0 samples were stopped with the acetonitrile solution while still on ice prior to addition of the NADPH regenerating system and compound, which were subsequently added. […] The supernatant was analyzed by LC-MS/MS. […] The half-life (T ½) was calculated as T ½=0.693/slope.

[2] = In vivo toxicity at three times the experimental dose; set-up: species or system athymic nude mice; conditions: for tolerability: 90 mg/Kg; for survival: 90 mg/Kg intraperitoneally on Day 5 and Day 15, n=3
Protocol: MDA-MB-231 cells were implanted orthotopically into the second thoracic mammary fat pad of nude mice (n=5). […] The control mice received vehicle only. (B) At the end of the experiments, representative tumors were removed and photographed. […] The Tumor sizes were measured by a digital caliper and shown as mean volume±SD every alternate day for 30 days. […] The statistical analysis was performed on GraphPad Prism 9.4.0.
In another experiment, two groups of mice received three times the experimental dose of both the peptides at 90 mg/Kg on Day 5 and Day 15 to check for potential toxicity.

Plasma stability = format: in vitro ADME, mouse; conditions: 2 μM, 37° C., up to 24 hours
Protocol: as §1
Plasma Stability. CD1 mouse plasma isolated using acidified citrate dextrose (ACD) was purchased from BioIVT and a DMSO stock of each compound was diluted into it at a final concentration of 2 μM. An aliquot was immediately removed for a zero time point and quenched with an equal volume of acetonitrile containing 0.2% formic acid and 200 ng/ml Tolbutamide IS. The remainder of the sample was incubated in a 37° C. water bath for up to 24 hours. Samples were removed at the indicated times and processed as described for the zero time point. After vortexing and centrifugation to pellet protein, the supernatant was analyzed by LC-MS/MS as described above. A control incubation was conducted in saline (0.9% NaCl).

[3] = Pharmacokinetic study in CD-1 mice; conditions: CD-1 female mice, intravenous 5 mg/kg

Substance | Mouse Microsome T 1/2 [1] | tolerability [2] | survival [2] | Murine Plasma T 1/2 (Plasma stability) | AUClast [3] | Cl [3] | Cmax [3] | Terminal T 1/2 [3] | Tmax [3] | Vss [3]
RPPCVIL [RP-7] | 0.872 h | well-tolerated | All mice (n=3) were alive after 30 days |  |  |  |  |  |  | 
LAIAVK [LA3IK] | >2 h | well-tolerated | All mice (n=3) were alive after 30 days | 2.55 h |  |  |  |  |  | 
d(L)d(A)d(I)d(A)d(V)d(K) [D-LA3IK] |  |  |  |  | 203,986 min*ng/ml | 24.5 mL | 3574 ng/mL | 3.58 h | 5 min | 1574 mL/kg
d(R)d(P)d(P)d(C)d(V)d(I)d(L) [D-RP-7] |  |  |  |  |  | 1415.5 mL | 48 ng/mL | 13.8 h | 5 min | 1,310,506 mL/kg
